Experiments:
[1] = tested on: skin of six human volunteers with phototypes III; assay: 5% creams on skin of human volunteers, skin colour by Dermacatch colorimeter; settings: 5% (w/w) cream once daily, six weeks
B16 melancytes = assay: Inhibition of melanin synthesis in cultured B16 melanocytes; settings: 10 micromolar, 5 consecutive days
[2] = Stability and colour change in cream conditions

## Cysteamine-phosphate
[1]
  Melanin values (change after treatment): significantly reduced
B16 melancytes
  effect on the melanin content of viable B16 melanocytes: no effect
[2]; cream
  stability in cream conditions: unstable
[2]; cream conditions
  time to oxidation to orange-red by-product that changes the colour of the creams: a few hours

Reference: patent US11096881B2, “Use of thiophosphate derivatives as skin depigmenting agents” (dated 2021)
